This test has as its target T1, NR1/NR2A NMDAR (Homo sapiens, UniProt Q05586+Q12879).
T1 construct: cDNAs for the GRIN1 (NM_007327), GRIN2A (NM_000833.3), GRIN2B (NM_000834.3) and Kir2.1 (NM_000891.2) proteins were purchased from GeneCopoeia; expressed in transfected cells; host or cells: HEK293 cells (ATCC) transduced with BacMam baculovirus (pFastBac-CMV-GW-DEST); virus made in Sf9
In words: NMDAR-mediated calcium flux assay, NR1/NR2A-transduced HEK293 cells. The following applies: MDL105,519-protected cells after washout. In kind it is cell-based. For orientation: Calcium flux is commonly read through the fluorescence of an indicator in the cells.

Protein sequences, listed by entry. Tags and fused reporters are not part of them. Residues count along the entry.
UniProt Q12879, 23-1464: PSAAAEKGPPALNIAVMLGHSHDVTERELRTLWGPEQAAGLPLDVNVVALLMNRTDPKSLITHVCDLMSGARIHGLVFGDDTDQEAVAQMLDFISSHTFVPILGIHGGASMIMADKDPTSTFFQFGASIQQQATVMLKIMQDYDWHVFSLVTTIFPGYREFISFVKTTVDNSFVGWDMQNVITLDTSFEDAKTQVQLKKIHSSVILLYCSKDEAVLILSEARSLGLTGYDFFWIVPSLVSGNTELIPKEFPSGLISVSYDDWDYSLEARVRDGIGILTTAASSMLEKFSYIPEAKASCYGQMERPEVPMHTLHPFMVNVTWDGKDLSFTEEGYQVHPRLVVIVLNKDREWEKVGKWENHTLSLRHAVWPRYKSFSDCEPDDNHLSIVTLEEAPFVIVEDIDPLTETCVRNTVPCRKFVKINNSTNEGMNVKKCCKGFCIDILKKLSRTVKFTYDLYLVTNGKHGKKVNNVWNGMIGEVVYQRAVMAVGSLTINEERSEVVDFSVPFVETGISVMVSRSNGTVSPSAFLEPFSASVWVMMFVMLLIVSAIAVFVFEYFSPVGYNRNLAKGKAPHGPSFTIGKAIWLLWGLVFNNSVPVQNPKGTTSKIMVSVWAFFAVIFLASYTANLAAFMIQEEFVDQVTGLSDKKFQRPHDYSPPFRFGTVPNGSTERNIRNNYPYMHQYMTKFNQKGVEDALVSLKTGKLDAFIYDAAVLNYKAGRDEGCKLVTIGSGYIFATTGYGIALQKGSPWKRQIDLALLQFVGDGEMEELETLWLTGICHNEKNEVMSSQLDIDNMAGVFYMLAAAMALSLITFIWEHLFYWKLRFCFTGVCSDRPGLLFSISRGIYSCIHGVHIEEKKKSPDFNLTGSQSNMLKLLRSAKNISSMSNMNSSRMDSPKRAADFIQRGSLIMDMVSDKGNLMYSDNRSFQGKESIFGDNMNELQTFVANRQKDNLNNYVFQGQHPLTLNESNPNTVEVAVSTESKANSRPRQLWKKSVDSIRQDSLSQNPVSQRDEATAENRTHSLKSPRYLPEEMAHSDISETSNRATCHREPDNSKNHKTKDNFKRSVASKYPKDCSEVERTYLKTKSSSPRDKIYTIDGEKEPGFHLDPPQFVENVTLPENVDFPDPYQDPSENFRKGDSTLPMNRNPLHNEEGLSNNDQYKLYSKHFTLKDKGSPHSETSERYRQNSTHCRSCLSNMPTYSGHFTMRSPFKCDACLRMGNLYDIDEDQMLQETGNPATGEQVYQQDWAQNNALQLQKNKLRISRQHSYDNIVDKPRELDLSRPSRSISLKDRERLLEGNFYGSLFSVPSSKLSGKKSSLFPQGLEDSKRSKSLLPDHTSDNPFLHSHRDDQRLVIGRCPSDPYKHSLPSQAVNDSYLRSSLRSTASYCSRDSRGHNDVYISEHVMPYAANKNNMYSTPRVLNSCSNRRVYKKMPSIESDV

As for `N[C@@H](CCC(=O)O)C(=O)O` [glutamate], the “dose-dependent activation of NMDAR-mediated calcium flux” value is recorded as “No significant dose-dependent activation”.
